Literature values in patent US9855226B2, “d-methadone for the treatment of psychiatric symptoms” (Relmada Therapeutics, Inc., priority 2012, dated 2018).

Test system: opioid receptors
Settings: cited from earlier work

CCC(=O)C(C[C@H](C)N(C)C)(c1ccccc1)c1ccccc1 [d-methadone]
Opioid receptor binding / activity: without opioid receptor activity

CCC(=O)C(C[C@@H](C)N(C)C)(c1ccccc1)c1ccccc1 [l-methadone, reference compound]
Opioid receptor binding / activity: binds to opioid receptors
